From PubChem BioAssay AID1422 (Emory University Molecular Libraries Screening Center, 2008)
Several values for one entry are separate records, joined by “and”; a condition that tells them apart may be missing. Equal entries are not always repeated. The list shows a part of the results, in another mix than the full data. Activity calls are given as the source filed them.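 How the source made its calls: active means percent inhibition above 40 after rounding to a whole number; inactive means the rest.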

The chains behind the UniProt entries cited, without tags or fusion partners. Where a name states a change or a piece, a line headed by the entry shows the natural chain unless it says otherwise.
UniProt P43116: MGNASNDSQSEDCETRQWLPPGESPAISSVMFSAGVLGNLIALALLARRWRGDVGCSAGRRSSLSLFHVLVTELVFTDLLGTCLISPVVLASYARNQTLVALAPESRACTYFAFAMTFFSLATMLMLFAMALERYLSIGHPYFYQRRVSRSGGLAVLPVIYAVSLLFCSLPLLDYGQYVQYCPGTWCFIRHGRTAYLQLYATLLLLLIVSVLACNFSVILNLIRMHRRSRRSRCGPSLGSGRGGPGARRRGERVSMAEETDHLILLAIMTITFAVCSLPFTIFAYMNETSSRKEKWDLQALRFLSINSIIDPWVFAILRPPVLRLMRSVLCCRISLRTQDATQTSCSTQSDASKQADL

Target: Prostaglandin E2 receptor EP2 subtype (Homo sapiens) (UniProt P43116)
Test: human EP2 receptor antagonists, primary screen, TR-FRET cAMP, C6 glioma cells (AID 1422);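 further: rat C6 glioma host cells with rolipram phosphodiesterase inhibitor present; the protocol text gives 20 µM as final concentration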
Details: C6 glioma cells expressing human EP2, cAMP TR-FRET; at 25 µM; stronger effect = higher value; cells stimulated with saturating PGE2

inhibition, active:
COc1cc(NS(=O)(=O)c2ccc(NC(=S)NC(=O)/C=C/c3ccc(F)cc3)cc2)ncn1 83.8%
COc1cc(NS(=O)(=O)c2ccc(NC(=S)NC(=O)c3cccs3)cc2)nc(OC)n1 89.5% and 71.7%
CCc1nnc(NS(=O)(=O)c2ccc(NC(=S)NC(=O)/C=C/c3ccccc3)cc2)s1 89.7%
COc1cc(/C=C/C(=O)NCCn2c(C)cc3ccccc32)cc(OC)c1OC 120%
CCc1nnc(NS(=O)(=O)c2ccc(NC(=S)NC(=O)/C=C/c3cccs3)cc2)s1 82.1% and 51.6%
CCc1nnc(NS(=O)(=O)c2ccc(NC(=S)NC(=O)c3ccc(OC)cc3)cc2)s1 72.6%
